For orientation: IC50 means the concentration at which inhibition is half-maximal.

Amino acid sequences for entries named in this document (tags omitted). Residues count along the entry.
UniProt P05556, 21-798 limits assumed: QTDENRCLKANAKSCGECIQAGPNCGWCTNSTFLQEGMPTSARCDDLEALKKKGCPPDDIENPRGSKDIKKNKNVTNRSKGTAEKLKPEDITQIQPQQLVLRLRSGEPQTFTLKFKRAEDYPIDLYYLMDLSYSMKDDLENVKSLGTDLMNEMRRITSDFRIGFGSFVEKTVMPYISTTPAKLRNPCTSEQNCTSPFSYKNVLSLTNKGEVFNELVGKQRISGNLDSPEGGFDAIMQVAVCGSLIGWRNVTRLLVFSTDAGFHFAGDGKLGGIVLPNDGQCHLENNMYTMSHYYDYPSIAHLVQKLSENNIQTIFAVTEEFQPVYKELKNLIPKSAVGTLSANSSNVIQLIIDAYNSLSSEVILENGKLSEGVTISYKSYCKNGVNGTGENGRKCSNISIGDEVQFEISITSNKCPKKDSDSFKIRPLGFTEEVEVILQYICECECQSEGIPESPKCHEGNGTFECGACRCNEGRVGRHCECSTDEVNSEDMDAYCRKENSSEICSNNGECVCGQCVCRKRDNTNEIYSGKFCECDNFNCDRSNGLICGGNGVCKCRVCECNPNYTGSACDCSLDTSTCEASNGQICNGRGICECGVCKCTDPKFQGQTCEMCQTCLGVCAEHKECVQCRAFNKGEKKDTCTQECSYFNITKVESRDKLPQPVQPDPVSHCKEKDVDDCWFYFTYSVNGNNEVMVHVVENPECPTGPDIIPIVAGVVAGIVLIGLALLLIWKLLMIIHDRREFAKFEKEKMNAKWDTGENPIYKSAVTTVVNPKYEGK
UniProt P13612, 34-1032 limits assumed: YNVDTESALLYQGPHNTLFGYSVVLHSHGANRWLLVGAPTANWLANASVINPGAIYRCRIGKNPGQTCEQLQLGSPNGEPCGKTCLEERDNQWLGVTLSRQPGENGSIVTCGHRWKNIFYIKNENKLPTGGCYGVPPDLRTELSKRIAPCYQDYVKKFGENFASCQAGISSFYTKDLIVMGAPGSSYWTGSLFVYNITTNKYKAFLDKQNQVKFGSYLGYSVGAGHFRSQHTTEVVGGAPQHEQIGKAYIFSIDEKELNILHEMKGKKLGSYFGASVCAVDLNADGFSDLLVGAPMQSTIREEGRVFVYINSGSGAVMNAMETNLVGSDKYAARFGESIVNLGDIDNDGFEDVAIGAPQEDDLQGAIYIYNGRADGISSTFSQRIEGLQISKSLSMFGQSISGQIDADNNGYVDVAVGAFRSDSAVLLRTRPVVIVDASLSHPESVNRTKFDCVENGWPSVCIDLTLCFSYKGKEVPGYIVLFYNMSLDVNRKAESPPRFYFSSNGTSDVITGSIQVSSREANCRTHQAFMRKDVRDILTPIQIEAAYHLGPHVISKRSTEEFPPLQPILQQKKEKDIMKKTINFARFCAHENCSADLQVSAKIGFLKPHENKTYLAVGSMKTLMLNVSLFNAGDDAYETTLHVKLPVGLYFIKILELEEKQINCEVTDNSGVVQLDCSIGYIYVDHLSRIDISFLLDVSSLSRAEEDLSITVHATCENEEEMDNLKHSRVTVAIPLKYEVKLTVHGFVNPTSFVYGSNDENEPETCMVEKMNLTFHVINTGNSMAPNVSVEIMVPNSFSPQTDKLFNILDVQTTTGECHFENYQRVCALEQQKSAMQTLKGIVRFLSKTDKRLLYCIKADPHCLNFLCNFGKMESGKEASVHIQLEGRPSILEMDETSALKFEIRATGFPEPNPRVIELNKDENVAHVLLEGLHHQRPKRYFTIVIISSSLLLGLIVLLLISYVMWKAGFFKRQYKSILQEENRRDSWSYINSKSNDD
UniProt P26010, 20-798 limits assumed: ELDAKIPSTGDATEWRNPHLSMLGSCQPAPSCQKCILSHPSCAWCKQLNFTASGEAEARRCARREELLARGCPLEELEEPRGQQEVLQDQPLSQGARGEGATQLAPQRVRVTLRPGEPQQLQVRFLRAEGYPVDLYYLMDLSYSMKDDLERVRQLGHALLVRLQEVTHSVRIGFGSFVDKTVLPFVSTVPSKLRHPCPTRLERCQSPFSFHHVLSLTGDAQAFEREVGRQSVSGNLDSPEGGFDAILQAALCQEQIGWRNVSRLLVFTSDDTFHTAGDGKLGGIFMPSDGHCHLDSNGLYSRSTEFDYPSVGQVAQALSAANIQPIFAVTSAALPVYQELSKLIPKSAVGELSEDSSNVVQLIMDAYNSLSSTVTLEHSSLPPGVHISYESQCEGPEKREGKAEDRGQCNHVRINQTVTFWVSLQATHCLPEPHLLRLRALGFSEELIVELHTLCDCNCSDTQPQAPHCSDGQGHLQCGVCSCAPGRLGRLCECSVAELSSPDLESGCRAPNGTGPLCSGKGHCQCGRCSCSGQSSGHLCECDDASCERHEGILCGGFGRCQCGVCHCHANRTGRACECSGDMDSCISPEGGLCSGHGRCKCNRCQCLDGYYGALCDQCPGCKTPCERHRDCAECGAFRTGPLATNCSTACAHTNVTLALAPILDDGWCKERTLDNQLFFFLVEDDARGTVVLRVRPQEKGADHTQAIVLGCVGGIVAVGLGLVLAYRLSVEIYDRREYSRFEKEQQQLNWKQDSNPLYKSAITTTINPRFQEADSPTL

Structures are written as SMILES.

For one test, the target named is integrin α4β1 (Homo sapiens, UniProt P05556+P13612). Put plainly: VCAM antagonist activity (VCAM-1/α4β1 binding assay). The note with it: read-out: VCAM antagonistic activity (IC50) α4β1; Jurkat cells binding to VCAM-1. The protocol:
(Test Example) VCAM Antagonist Activity (VCAM-1/α4β1 Binding Assay):
The capacity of a test substance antagonistic to the binding of cell strain Jurkat (ATCC TIB-152) of human T cells, known to express integrin α4β1, to VCAM-1 was determined.
(§1) 100 μl/well of a solution (500 ng/ml) of recombinant human VCAM-1 (R & D systems) solution diluted with buffer A (0.1 M NaHCO3, pH 9.6) was added to a micro titer plate having 96 wells (Nunc Maxisorp). After the incubation at 4° C. overnight, unbound VCAM-1 was removed by washing once with PBS. After completion of the washing, a buffer (buffer B) obtained by diluting Block Ace® (Dainippon Pharmaceutical Co., Ltd.) with PBS to 1/4 concentration was added in an amount of 150 μl/well. After the incubation at room temperature for 1 hour, buffer B was removed and the plate was washed with PBS once.
Jurkat cells were washed with Dulbecco modified Eagle medium (SIGMA, hereinafter referred to as “DMEM”) twice and then incubated in DMEM containing 10 μg/ml of Calcein-AM (Wako Pure Chemical Industries, Ltd.) at 37° C. in dark place for 30 minutes to label with fluorescence. The cells were again suspended in a binding buffer (20 mM HEPES, DMEM containing 0.1% BSA).
(§2) 50 μl of a test substance of various concentrations obtained by the dilution with the binding buffer was added to the plate. Immediately thereafter, 50 μl (final volume: 100 μl/well) of the fluorescent Jurkat cells (4×10^6 cells/ml) were added thereto, and they were incubated at room temperature for 30 minutes. After the shaking on a plate shaker (IKA MTS-4) at 800 rpm for 30 seconds, the solution was immediately removed to remove the unbound cells. The fluorescence quantity of the bound cells remaining in the wells was determined with a fluorescent plate reader (Wallac 1420 ARVO multi-label counter) (filter excitation wave length: 485 nm, emission wave length: 535 nm). The fluorescent strength thus obtained is proportional to the number of Jurkat cells bound to VCAM-1 and remaining on the plate. The binding rate of each test material in various concentrations was determined while the fluorescent strength of the test material-free well was determined to be 100%. The concentration IC50 for the 50% binding inhibition was calculated.
(§3) The activities were classified into group A wherein IC50 was 0.02 μmol/l or below, group B wherein IC50 was higher than 0.02 μmol/l and not above 0.1 μmol/l, group C wherein IC50 was higher than 0.1 μmol/l and not above 2 μmol/l, and group D wherein IC50 was higher than 2 μmol/l and not above 10 μmol/l.

A further test addresses integrin α4β7 (Homo sapiens, UniProt P13612+P26010). As to the kind of experiment: VCAM antagonistic activity (VCAM-1/α4β7 binding assay). The note with it: read-out: VCAM antagonistic activity (IC50) α4β7; RPMI-8866 cells binding to VCAM-1. On the procedure: (Test Example) VCAM Antagonistic Activity (VCAM-1/α4β7 Binding Assay):
The capacity of a test substance antagonistic to the binding of lymphoma cell strain RPMI-8866 of human B cells, known to express integrin α4β7, to VCAM-1 was determined.
as §1
RPMI-8866 cells were incubated in Dulbecco modified Eagle medium containing 10 μg/ml of Calcein-AM (Wako Pure Chemical Industries, Ltd.) (SIGMA, hereinafter referred to as “DMEM”) at 37° C. for 30 minutes to label with fluorescence. The cells were again suspended in a binding buffer (20 mM HEPES, DMEM containing 0.1% BSA) containing 4 mM of MnCl2.
as §2, with “RPMI-8866” for “Jurkat”
as §3

As to `CCC(CC)(C(=O)N[C@@H](Cc1ccc(OCc2c(Cl)cccc2Cl)cc1)C(=O)O)C(=O)N1C[C@H](O)C[C@H]1C(N)=O`, the IC50 was 20 to 100 nM on integrin α4β1 and under 20 nM at integrin α4β7.

Take `CCC(CC)(C(=O)N[C@@H](Cc1ccc(OCc2c(Cl)cccc2Cl)cc1)C(=O)O)C(=O)N1C[C@H](O)C[C@@H]1C(=O)OC`: the IC50 on integrin α4β1 was 20 to 100 nM; at integrin α4β7, under 20 nM.

As for `CCC(CC)(C(=O)N[C@@H](Cc1ccc(OCc2c(Cl)cccc2Cl)cc1)C(=O)O)C(=O)N1C(C)COCC1C` (stereo partly drawn), the IC50 on integrin α4β1 was in the range of 100 to 2000 nM; on integrin α4β7 it was 20 to 100 nM.

Take `CCC(CC)(C(=O)N[C@@H](Cc1ccc(OCc2c(Cl)cccc2Cl)cc1)C(=O)O)C(=O)N1CCCN(C(C)=O)CC1`: the IC50 on integrin α4β1 was 100 to 2000 nM; on integrin α4β7, under 20 nM.

For `CCC(CC)(C(=O)N[C@@H](Cc1ccc(OCc2c(Cl)cccc2Cl)cc1)C(=O)O)C(=O)N1C[C@H](O)C[C@@H]1C(N)=O`, the half-inhibitory concentration (IC50) is 20 to 100 nM at integrin α4β1 and under 20 nM at integrin α4β7.

Take `CCC(CC)(C(=O)N[C@@H](Cc1ccc(OCc2c(Cl)cccc2Cl)cc1)C(=O)O)C(=O)N1C[C@@H]2C[C@H]1CN2`: the IC50 was 20 to 100 nM on integrin α4β1 and under 20 nM on integrin α4β7.

Consider `CCC(CC)(C(=O)N[C@@H](Cc1ccc(OCc2c(Cl)cccc2Cl)cc1)C(=O)O)C(=O)N1CC2CC1CS2` (stereo partly drawn), for which the IC50 on integrin α4β1 is 100 to 2000 nM; at integrin α4β7, under 20 nM.

Take `CCC(CC)(C(=O)N[C@@H](Cc1ccc(OCc2c(Cl)cccc2Cl)cc1)C(=O)O)C(=O)N1CC2CC1CO2` (stereo partly drawn): the IC50 is 100 to 2000 nM at integrin α4β1 and under 20 nM on integrin α4β7.

Turning to `CCC(CC)(C(=O)N[C@@H](Cc1ccc(OCc2c(Cl)cccc2Cl)cc1)C(=O)O)C(=O)N1CC=CC1`, the half-inhibitory concentration (IC50) at integrin α4β1 was in the range of 100 to 2000 nM; on integrin α4β7, 20 to 100 nM.

(Values after patent US7160874B2, “Phenylalanine derivatives” (Ajinomoto Co., Inc., priority 1999, dated 2007).)
